Reference: patent US4514403A, “Hydrouracil compounds” (Yoshitomi Pharmaceutical Industries Ltd., priority 1980, dated 1985)
Counter-ions that a name gives are not always drawn. Like-named read-outs stand apart in the source and are kept apart here.

Key:
Electric stimuli test = conditions: for ED50: Mus musculus, read-out: Electric Stimuli Test ED50; for Electric Stimuli Test ED50: mice
AgNO3 arthritis test = conditions: for ED50: Rattus norvegicus, sc, read-out: AgNO3 Arthritis Test ED50; for Inhibition (%) of Occurrence of Pain: 5 mg/kg s.c.
[1] = Phenylquinone writhing test; conditions: for ED50: Mus musculus, read-out: Phenylquinone Writhing Test ED50; for Inhibition (%) of Occurrence of Pain / Phenylquinone Writhing Test ED50: mice; for Inhibition (%) of Occurrence of Pain: 0.5 mg/kg s.c.
[2] = Bradykinin nociception test; conditions: for ED50: Rattus norvegicus, read-out: Bradykinin Nociception Test ED50; for Inhibition (%) of Occurrence of Pain / Bradykinin Nociception Test ED50: rats; for Inhibition (%) of Occurrence of Pain: 2.5 mg/kg s.c.
in vivo = conditions: rat
[3] = system: evoked potentials in central nervous system; assay: Effect on the various evoked potentials in central nervous system; type: in vivo, Male Wistar rats; parameters: key to Amplitude of Evoked Responses, VP-COR / Amplitude of Evoked Responses, HIP-AMY / Amplitude of Evoked Responses, HIP-SEP: -: No change; --: No change; (+): Levallorphan antagonism; (-): Levallorphan antagonism
Description: Male Wistar rats, weighing 300-350 g, were used under ethyl ether anesthesia. The trachea and femoral vein were cannulated for artificial respiration and drug injection, respectively. Immobilization of the rat was maintained by gallamine thioethiodide (10 mg/kg) given intravenously every one hours. All wound edges were infiltration with carbocaine hydrochloride. The experiments began after at least 2 hours had elapsed from discontinuance of ether anesthesia. The COR (somatosensory cortex) evoked potentials by VP (neucleus ventralis posterior thalamus) stimulation (VP - COR evoked potential) were recorded from somatosensory cortex, through a silver electrode applied directly to the cortex. In order to record VP and MRF (midbrain reticular formation) evoked potentials by sciatic nerve stimulation or AMY (amygdala) and SEP (septum) evoked potentials by HIP (hippocampus) stimulation, bipolar stainless steel electrodes were stereotaxically placed into the VP, MRF, AMY, SEP and HIP. The stimuli were delivered to various sites every 2 seconds from a stimulation and consisted of 0.1 msec rectangular pulses (twice threshold intensity). The evoked responses were visualized on an oscilloscope. All records were made up of 20 superimposed tracings.

Tolerance test = type: in vivo; conditions: continuous administration
Hot plate test = conditions: for ED50: Rattus norvegicus, sc, read-out: Hot Plate Test ED50
[4] = Tooth pulp nociception test
Mouse jumping test = conditions: administration at a lethal dose
central nervous system = assay: Activity on central nervous system; conditions: in vivo
[5] = system: ventro-medial hypothalamus; assay: Effect on the aggressive-defense reaction produced by electrical stimulation at the ventro-medial hypothalamus of cats; type: in vivo; conditions: for Threshold of current, Ear-flattening / Threshold of current, Growling / Threshold of current, Retreat with provocation / Threshold of current, Pupil dilatation: standard current = 100
Description: The latter used the double-walled cannula method which permitted electrical and chemical stimulation at the same locus in brain. H. Nakao et al. in "Integrative Control Functions of the Brain", vol. […] Similar studies have been done using serotonin by L. H. Allikmets in "Pavlov Journal of High Nervous Activity", 22, 597-602 (1972) and using chlorpromazine, haloperidol, pentobarbital and diazepam by H. Maeda in "Folia Psychiatrica et Neurologica Japonica", 30, 539-546 (1976).
Alternatively 30 mg/kg of Test compound B was injected subcutaneously.

[6] = rat, in vivo
[7] = Antagonism by levallorphan in electric stimuli test; conditions: electric stimuli test in mice; levallorphan (narcotic antagonist)
[8] = system: ventro-medial hypothalamus; conditions: compared with Test compound B; cited from earlier work
[9] = calculated from inhibition (%) in a low dose

Cc1c(N(C)C)c(=O)n(-c2ccccc2)n1C [Aminopyrine, reference compound]
ED50 (Electric stimuli test; po): 315 mg/kg
ED50 (Electric stimuli test; sc): 100 mg/kg
ED50 (AgNO3 arthritis test): 170 mg/kg
ED50 ([1]; po): 92 mg/kg
ED50 ([1]; sc): 16 mg/kg
ED50 ([2]; sc): 30 mg/kg
LD50 (in vivo; ip): 248 mg/kg
LD50 (in vivo; po): 1050 mg/kg
Amplitude of Evoked Responses, HIP-AMY ([3]; 10 mg/kg i.v.): --
Amplitude of Evoked Responses, HIP-SEP ([3]; 10 mg/kg i.v.): --
Amplitude of Evoked Responses, VP-COR ([3]; 10 mg/kg i.v.): --
Amplitude of Evoked Responses, HIP-AMY ([3]; 25 mg/kg i.v.): --
Amplitude of Evoked Responses, HIP-SEP ([3]; 25 mg/kg i.v.): --
Amplitude of Evoked Responses, HIP-AMY ([3]; 50 mg/kg i.v.): --
Amplitude of Evoked Responses, HIP-SEP ([3]; 50 mg/kg i.v.): --

COc1ccc2c3c1O[C@H]1[C@@H](O)C=C[C@H]4[C@@H](C2)N(C)CC[C@@]341 [Codeine, reference compound]
body weight reduction (rats, withdrawal): remarkably reduced
tolerance (decrease of effects) (Tolerance test): caused a clear tolerance

CN1CC[C@]23c4c5ccc(O)c4O[C@H]2[C@@H](O)C=C[C@H]3[C@H]1C5 [Morphine]
ED50 (Electric stimuli test; sc): 3 mg/kg
Electric Stimuli Test ED50 (Electric stimuli test; p.o.): 17 mg/kg
ED50 (AgNO3 arthritis test): 0.8 mg/kg
Inhibition (%) of Occurrence of Pain (AgNO3 arthritis test; rats): 100%
ED50 ([1]; po): 2.1 mg/kg
ED50 ([1]; sc): 0.4 mg/kg
Inhibition (%) of Occurrence of Pain [1]: 78%
ED50 (Hot plate test): 4 mg/kg
ED50 ([2]; po): 50 mg/kg
ED50 ([2]; sc): 6 mg/kg
Inhibition (%) of Occurrence of Pain [2]: 17%

CC(C)=CCN1CCC2(C)c3cc(O)ccc3CC1C2C (stereo not drawn) [Pentazocine]
ED50 (Electric stimuli test; po): 178 mg/kg
ED50 (Electric stimuli test; sc): 23 mg/kg
ED50 (AgNO3 arthritis test): 10 mg/kg
Relative potency (Test compound A = 1), AgNO3 Arthritis Test (AgNO3 arthritis test; calculated from ED50): 0.7
Relative potency (Test compound A = 1), AgNO3 Arthritis Test (AgNO3 arthritis test; [9]): 0.78
Inhibition (%) of Occurrence of Pain (AgNO3 arthritis test; rats): 33%
ED50 ([1]; po): 18 mg/kg
ED50 ([1]; sc): 1.3 mg/kg
Relative potency (Test compound A = 1), Phenylquinone Writhing Test ([1]; calculated from ED50): 0.77
Relative potency (Test compound A = 1), Phenylquinone Writhing Test [1, 9]: 0.31
Inhibition (%) of Occurrence of Pain [1]: 15%
ED50 (Hot plate test): 30 mg/kg
Relative potency (Test compound A = 1), Tooth Pulp Nociception Test ([4]; calculated from ED50): 0.82
Relative potency (Test compound A = 1), Tooth Pulp Nociception Test [4, 9]: 0.59
increasing rate in threshold ([4]; rabbits, 2.5 mg/kg i.v.): 44%
ED50 ([2]; po): 100 mg/kg
ED50 ([2]; sc): 8 mg/kg
Relative potency (Test compound A = 1), Bradykinin Nociception Test ([2]; calculated from ED50): 0.5
Relative potency (Test compound A = 1), Bradykinin Nociception Test [2, 9]: 0.34
Inhibition (%) of Occurrence of Pain [2]: 13%
LD50 (in vivo; po): 1100 mg/kg
LD50 (in vivo; sc): 270 mg/kg

CCOC(=O)C1(c2ccccc2)CCN(C)CC1 [Pethidine, reference compound]
Amplitude of Evoked Responses, HIP-SEP ([3]; 5 mg/kg i.v.): --
Amplitude of Evoked Responses, VP-COR ([3]; 5 mg/kg i.v.): --
Amplitude of Evoked Responses, HIP-SEP ([3]; 10 mg/kg i.v.): --

O=C1CCN(C2CCN(CC=Cc3ccccc3)CC2)C(=O)N1 [Test compound B, 1-(1-cinnamyl-4-piperidyl)hydrouracil hydrochloride]
jumping symptom (Mouse jumping test): did not cause any jumping symptom
ED50 (Electric stimuli test; po): 200 mg/kg
ED50 (Electric stimuli test; sc): 40 mg/kg
ED50 (AgNO3 arthritis test): 25 mg/kg
ED50 ([1]; po): 18 mg/kg
ED50 ([1]; sc): 7.8 mg/kg
muscle relaxant activity (central nervous system): did not show practically such activities
reserpine potentiating activity (central nervous system): did not show practically such activities
suppression of spontaneous locomotor activity (central nervous system): did not show practically such activities
Threshold of current, Ear-flattening ([5]; 30 mg/kg s.c., 0 min): 100
Threshold of current, Growling ([5]; 30 mg/kg s.c., 0 min): 100
Threshold of current, Retreat with provocation ([5]; 30 mg/kg s.c., 0 min): 100
Threshold of current, Ear-flattening ([5]; 30 mg/kg s.c., 70 min): 120
Threshold of current, Growling ([5]; 30 mg/kg s.c., 70 min): 177
Threshold of current, Retreat with provocation ([5]; 30 mg/kg s.c., 70 min): 142
Threshold of current, Ear-flattening ([5]; 30 mg/kg s.c., 110 min): 105
Threshold of current, Growling ([5]; 30 mg/kg s.c., 110 min): 184
Threshold of current, Retreat with provocation ([5]; 30 mg/kg s.c., 110 min): 127
duration for which the threshold of responses was raised ([5]; 30 mg/kg subcutaneously): over 2 hours
rage behaviour with provocation by the experimenter ([5]; 30 mg/kg subcutaneously): did not show rage behaviour
duration for which the threshold of current was raised ([5]; 10^-6 g in 0.5 μl through double-walled cannula): 60 min
Threshold of current, Ear-flattening ([5]; 10^-6 g in brain, 0 min): 100
Threshold of current, Growling ([5]; 10^-6 g in brain, 0 min): 100
Threshold of current, Pupil dilatation ([5]; 10^-6 g in brain, 0 min): 100
Threshold of current, Retreat with provocation ([5]; 10^-6 g in brain, 0 min): 100
Threshold of current, Ear-flattening ([5]; 10^-6 g in brain, 5 min): 200
Threshold of current, Growling ([5]; 10^-6 g in brain, 5 min): 200
Threshold of current, Pupil dilatation ([5]; 10^-6 g in brain, 5 min): 200
Threshold of current, Retreat with provocation ([5]; 10^-6 g in brain, 5 min): 180
Threshold of current, Ear-flattening ([5]; 10^-6 g in brain, 20 min): 200
breathing of the cat ([5]; during this experiment): normal
threatening, rage and retreat reactions ([5]; electrical stimulation of ventro-medial hypothalamus): clearly suppressed
ED50 (Hot plate test): 90 mg/kg
ED50 ([2]; po): 100 mg/kg
ED50 ([2]; sc): 10 mg/kg
LD50 (in vivo; ip): 150 mg/kg
LD50 (in vivo; po): 1200 mg/kg
LD50 (in vivo; sc): 500 mg/kg

CN1C(=O)CCN(C2CCN(CCc3ccccc3)CC2)C1=O [Test compound C, 1-(1-phenethyl-4-piperidyl)-3-methyl-hydrouracil hydrochloride]
jumping symptom (Mouse jumping test): did not cause any jumping symptom
body weight reduction (rat, in vivo): not reduced
ED50 (Electric stimuli test; po): 220 mg/kg
ED50 (Electric stimuli test; sc): 50 mg/kg
compensatory adjustment against codeine [6]: had not compensatory adjustment against codeine
ED50 (AgNO3 arthritis test): 45 mg/kg
ED50 ([1]; po): 5 mg/kg
ED50 ([1]; sc): 1.5 mg/kg
Influence of levallorphan on analgesic activity [7]: did not influence the analgesic activity
ED50 (Hot plate test): 10 mg/kg
ED50 ([2]; po): 400 mg/kg
ED50 ([2]; sc): 70 mg/kg
LD50 (in vivo; ip): 150 mg/kg
LD50 (in vivo; po): 900 mg/kg
LD50 (in vivo; sc): 700 mg/kg
cross tolerance against codeine (Tolerance test): did not show a cross tolerance against codeine
tolerance (decrease of effects) (Tolerance test): did not cause a significant decrease of effects
Amplitude of Evoked Responses, HIP-AMY ([3]; 5 mg/kg i.v.): --
Amplitude of Evoked Responses, HIP-SEP ([3]; 5 mg/kg i.v.): --
Amplitude of Evoked Responses, VP-COR ([3]; 5 mg/kg i.v.): --
Amplitude of Evoked Responses, HIP-AMY ([3]; 10 mg/kg i.v.): --
Amplitude of Evoked Responses, HIP-SEP ([3]; 10 mg/kg i.v.): --
Amplitude of Evoked Responses, HIP-AMY ([3]; 25 mg/kg i.v.): --
Amplitude of Evoked Responses, HIP-SEP ([3]; 25 mg/kg i.v.): --

O=C1CCN(C2CCN(CCc3ccccc3)CC2)C(=O)N1 [Test compound D, 1-(1-phenethyl-4-piperidyl)hydrouracil hydrochloride]
ED50 (Electric stimuli test; po): 220 mg/kg
ED50 (Electric stimuli test; sc): 100 mg/kg
ED50 (AgNO3 arthritis test): 90 mg/kg
ED50 ([1]; po): 4 mg/kg
ED50 ([1]; sc): 2.5 mg/kg
ED50 (Hot plate test): 200 mg/kg
ED50 ([2]; sc): 25 mg/kg
LD50 (in vivo; ip): 180 mg/kg
LD50 (in vivo; po): 500 mg/kg
LD50 (in vivo; sc): 450 mg/kg

COc1cccc(C2(O)CCCCC2CN(C)C)c1 (stereo not drawn) [Tramadol, reference compound]
Electric Stimuli Test ED50 (Electric stimuli test; p.o.): 23 mg/kg
Electric Stimuli Test ED50 (Electric stimuli test; s.c.): 12 mg/kg
AgNO3 Arthritis Test ED50 (AgNO3 arthritis test; rats, s.c.): 17 mg/kg
Phenylquinone Writhing Test ED50 ([1]; p.o.): 11 mg/kg
Phenylquinone Writhing Test ED50 ([1]; s.c.): 1.5 mg/kg
Influence of levallorphan on analgesic activity [7]: reduced
Hot Plate Test ED50 (Hot plate test; rats, s.c.): 50 mg/kg
Tooth Pulp Nociception Test IT100 ([4]; rabbit, in vivo, iv): 5 mg/kg
Bradykinin Nociception Test ED50 ([2]; p.o.): 50 mg/kg
Bradykinin Nociception Test ED50 ([2]; s.c.): 70 mg/kg
LD50 (in vivo; ip): 150 mg/kg
LD50 (in vivo; po): 228 mg/kg
LD50 (in vivo; sc): 300 mg/kg

CN(C)CCCN1c2ccccc2Sc2ccc(Cl)cc21 [chlorpromazine]
inhibition of threatening and rage reactions [8]: less active

CN1C(=O)CN=C(c2ccccc2)c2cc(Cl)ccc21 [diazepam]
inhibition of threatening and rage reactions [8]: less active

CCCC(C)C1(CC)C(=O)NC(=O)NC1=O (stereo not drawn) [pentobarbital]
inhibition of threatening and rage reactions [8]: less active
